Here are results for one compound from paper PMC11026163, “Structural basis for excitatory neuropeptide signaling” (Nature Structural & Molecular Biology, 2024).

The structures appear in SMILES notation. Bounds are passed on as bounds.

The target of one assay is FaNaC1 F129L (Malacoceros fuliginosus, UniProt A0AAN0NP85, F130L). Briefly: TEVC, FMRFa-gated currents, oocytes expressing mutant FaNaC1. It is filed as cell-based. On the procedure: (§1) FaNaC1 in a modified pSP64 plasmid vector (Supplementary Notes) was used for mutagenesis and messenger RNA preparation and injection into stage V/VI Xenopus laevis oocytes (EcoCyte Bioscience). Mutants were generated by partly overlapping primers (Supplementary Table 1 and ref. [75]), and channel-coding inserts were Sanger sequenced. […] NaCl was replaced with KCl, NH4Cl or H3CNH3Cl (Merck) where appropriate.
(§2) Current amplitudes were measured in Clampfit v.11 (Molecular Devices). N values refer to experiments performed on different oocytes. Data were analyzed in Prism v.9 (GraphPad) and fit with Prism v.9 variable-slope four-parameter nonlinear regression, yielding half-maximal effective activating/inhibiting concentrations (EC50/IC50). […] Mean ± standard error of the mean (s.e.m.) EC50/IC50 from fits to individual cells reported in Main. Currents shown in figures are further filtered (20 Hz) and decimated (50×) in Clampfit 11 for smaller file size.

The target of another assay is FaNaC1 F129A (Malacoceros fuliginosus, UniProt A0AAN0NP85, F130A). Described as above. It is filed as cell-based. On the procedure: as §1, §2
The target of the next assay is FaNaC1 V122A (Malacoceros fuliginosus, UniProt A0AAN0NP85, V123A). Described as above. It is filed as cell-based. The method, then:
as §1, §2

The next assay has as its system FaNaC1 H297S. Nature of the assay: TEVC, FMRFa- and ASSFVRIa-gated currents at H297S channels. It is filed as cell-based, Malacoceros fuliginosus. The source says:
Fig. 6 FaNaC1 gating mechanism. a, Overlay of ligand-free FaNaC1 (blue) and FaNaC1/FMRFa/diminazene (orange) structures. Adjacent subunit in darker shades. b, Magnified views of boxed regions, left to right: ligand binding site; palm domain; β-turn–TM2a/TM1 interactions. Selected side chains shown as sticks and labeled. c, Illustration of one subunit (left subunit in a) moving during gating: peripheral rolling, internal stasis and β-turn moving outward to allow channel expansion. α6 helix from adjacent subunit in gray. d, Top left and bottom, example recordings from oocytes expressing mutant H297S FaNaC1 channels (scale bars, x, 30 s; y, 1 µA). Top right, mean (± s.e.m., n = 5 oocytes) responses of H297S channels to FMRFa and ASSFVRIa normalized to maximum FMRFa-gated current (I/Imax-FMRFa), compared to WT channels. […]
Oocytes were clamped at −60 mV unless otherwise indicated, and currents were measured by two-electrode voltage clamp, as previously described, using a Warner OC-725C amplifier and HEKA LIH8 + 8 interface with Patchmaster 2x90.4 software (HEKA), sampling at 500 Hz or 1 kHz and filtering at 100 Hz. Current amplitudes were measured in Clampfit v.11 (Molecular Devices). […] Data were analyzed in Prism v.9 (GraphPad) and fit with Prism v.9 variable-slope four-parameter nonlinear regression, yielding half-maximal effective activating/inhibiting concentrations (EC50/IC50). […]

The next assay deals with FaNaC1 S282C (Malacoceros fuliginosus, UniProt A0AAN0NP85, S283C). Briefly: TEVC, FMRFa-gated currents with and without MTSET modification of introduced cysteine. It is filed as cell-based. The following applies: n = 3.
From the text: (§3) We had previously proposed an FMRFa-binding site ~20 Å away from this site, at the interface of adjacent subunits’ β-ball and palm domains (orange in Fig. 3a and Extended Data Fig. 7) based on amino acid sequence analysis and severe effects of mutations in this site in several FaNaCs[21]. Our high-resolution maps seem to disprove that, motivating us to experimentally compare the finger site and palm/β-ball site. To this end, we compared the effects of modification of introduced cysteine residues in both of the sites by 2-(trimethylammonium)ethyl]methanethiosulfonate (MTSET), offering a readout of steric modification of the sites in ‘real time’. […] In the palm domain, MTSET modification reduced β9-S282C currents to about half but had no effect on the β11-N475C mutant (Fig. 3a,b).
(§4) Fig. 3 Chemical modification of FMRFa binding site and intersubunit interface. a, Illustration of cysteine substitutions in FMRFa binding site and previously identified interfacial site. b, FMRFa-gated currents with and without MTSET (300 μM) and after dithiothreitol (DTT) (2 mM) in oocytes expressing indicated FaNaC1 constructs. Top, example recordings. Bottom, mean (columns) and individual (dots, n = 4 oocytes) current amplitude normalized to that in the absence of MTSET. Scale bars, x, 10 s; y, 100 nA. c,d, Top, concentration-dependent FMRFa-gated currents in oocytes expressing indicated FaNaC1 constructs. Bottom, mean (±s.e.m., n = 4 oocytes) concentration-dependent current amplitude normalized to maximum current in the absence of MTSET. Scale bars in c and d, x, 10 s; y, 50 nA. Source data
as §1
(§5) Oocytes were clamped at −60 mV unless otherwise indicated, and currents were measured by two-electrode voltage clamp, as previously described, using a Warner OC-725C amplifier and HEKA LIH8 + 8 interface with Patchmaster 2x90.4 software (HEKA), sampling at 500 Hz or 1 kHz and filtering at 100 Hz. Current amplitudes were measured in Clampfit v.11 (Molecular Devices). N values refer to experiments performed on different oocytes. Data were analyzed in Prism v.9 (GraphPad) and fit with Prism v.9 variable-slope four-parameter nonlinear regression, yielding half-maximal effective activating/inhibiting concentrations (EC50/IC50). In establishing EC50 values for activation by FMRFa, we waited 4 min between applications of increasing concentrations. As detailed in Extended Data Fig. 5a,b, this risked incomplete recovery from desensitization at high ligand concentrations, but it ensured better recordings without substantially affecting EC50. Mean ± standard error of the mean (s.e.m.) EC50/IC50 from fits to individual cells reported in Main. Currents shown in figures are further filtered (20 Hz) and decimated (50×) in Clampfit 11 for smaller file size.

Another assay deals with FaNaC1 N475C (Malacoceros fuliginosus, UniProt A0AAN0NP85, N476C). The assay is described as above. Conditions: n = 3. It counts as cell-based.
From the text: as §3, §4, §1, §5

The target in another assay is FaNaC1 M238C (Malacoceros fuliginosus, UniProt A0AAN0NP85, M239C). The description is as above. It is filed as cell-based. The following applies: n = 3.
From the text: as §3, §4, §1, §5

A further assay deals with FaNaC1 F129C (Malacoceros fuliginosus, UniProt A0AAN0NP85, F130C). The description is as above. Conditions: n = 3. It counts as cell-based.
From the text: as §3, §4, §1, §5

For the next assay, the target named is FaNaC1 F97C (Malacoceros fuliginosus, UniProt A0AAN0NP85, F98C). The assay is described as above. It counts as cell-based. Conditions: n = 3.
From the text: as §3, §4, §1, §5

The subject of another assay is FaNaC1 Q133L. Briefly: TEVC, FMRFa-gated currents, oocytes expressing mutant FaNaC1. It is filed as cell-based, Malacoceros fuliginosus. The method, then:
as §1, §2

The test system of the next assay is FaNaC1 F129Q. The description is as above. It counts as cell-based, Malacoceros fuliginosus. The method, then:
as §1, §2

A further assay relates to FaNaC1 D101A/E235A. The description is as above. It counts as cell-based, Malacoceros fuliginosus. The method, then: as §1, §2
The test system of another assay is FaNaC1 Q133N. The description is as above. It counts as cell-based, Malacoceros fuliginosus. The method, then:
as §1, §2

The next assay relates to FaNaC1 V122F. The assay is described as above. It counts as cell-based, Malacoceros fuliginosus. On the procedure:
as §1, §2

A further assay deals with FaNaC1 V122Q. The description is as above. It is filed as cell-based, Malacoceros fuliginosus. On the procedure:
as §1, §2

The target of the next assay is T1, FaNaC1 (WT) (Malacoceros fuliginosus, UniProt A0AAN0NP85).
T1 sequence (A0AAN0NP85 1-600): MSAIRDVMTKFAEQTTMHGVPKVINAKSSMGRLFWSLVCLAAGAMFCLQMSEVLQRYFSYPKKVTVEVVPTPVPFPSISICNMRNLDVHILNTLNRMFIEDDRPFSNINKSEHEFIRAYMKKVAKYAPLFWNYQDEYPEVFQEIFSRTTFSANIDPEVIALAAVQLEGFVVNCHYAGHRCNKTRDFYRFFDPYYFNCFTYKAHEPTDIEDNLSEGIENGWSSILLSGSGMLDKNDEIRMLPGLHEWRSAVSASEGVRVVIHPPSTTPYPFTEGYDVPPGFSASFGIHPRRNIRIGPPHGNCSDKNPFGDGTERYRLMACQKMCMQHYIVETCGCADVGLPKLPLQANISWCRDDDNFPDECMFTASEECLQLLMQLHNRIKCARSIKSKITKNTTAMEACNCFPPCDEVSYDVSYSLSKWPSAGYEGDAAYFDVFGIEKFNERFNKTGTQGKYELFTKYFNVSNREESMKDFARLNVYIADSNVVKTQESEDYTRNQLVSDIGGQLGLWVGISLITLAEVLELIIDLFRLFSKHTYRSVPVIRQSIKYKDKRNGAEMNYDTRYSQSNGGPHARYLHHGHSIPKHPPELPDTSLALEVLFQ
Briefly: Two-electrode voltage clamp, peptide-gated currents in Xenopus laevis oocytes expressing WT FaNaC1. It counts as cell-based. On the procedure: as §1, §2
(Two-electrode voltage clamp is typically applied to oocytes expressing channels or transporters.)

In general, EC50 refers to the concentration that produces a half-maximal response. For the compound `CSCC[C@H](NC(=O)[C@@H](N)Cc1ccccc1)C(=O)N[C@@H](CCCNC(=N)N)C(=O)N[C@@H](Cc1ccccc1)C(N)=O` [FMRFa, H–Phe–Met–Arg–Phe–NH2], the EC50 at FaNaC1 F129L is 9000 ± 3000 nM; at FaNaC1 F129A it was 18000 ± 8000 nM; at FaNaC1 V122A it was 40 ± 10 nM; at FaNaC1 S282C (after MTSET) it was 170 ± 40 nM; on FaNaC1 S282C (before MTSET), 360 ± 100 nM; on FaNaC1 N475C (after MTSET), 140 ± 70 nM. The half-maximal effective concentration (EC50) at FaNaC1 N475C (before MTSET) was 230 ± 110 nM; on FaNaC1 M238C (after MTSET) it was 580 ± 290 nM; at FaNaC1 M238C (before MTSET), 140 ± 70 nM; on FaNaC1 F129C (after MTSET), over 10000 nM; on FaNaC1 F129C (before MTSET) it was 5000 ± 1000 nM; at FaNaC1 F97C (after MTSET), 4000 ± 2000 nM. This compound registered a concentration giving a half-maximal response (EC50) at FaNaC1 F97C (before MTSET) of 250 ± 80 nM. For the same compound, the “decrease in FMRFa potency vs WT” value at FaNaC1 F129L (F129L) is recorded as 10- to 20 fold; at FaNaC1 F129A (F129A) it was 10- to 20 fold; in the assay on FaNaC1 F129Q it was ~ 100 fold. At FaNaC1 V122A (V122A), the “increase in FMRFa potency vs WT” value is on record as 20 fold. Further, in the assay on FaNaC1 H297S, the “potency at H297S compared to WT” value is “increased potency compared to WT”. Further, the “effect of mutation on FMRFa potency” value in the assay on FaNaC1 Q133L was “two- to fourfold decreases in potency”; with FaNaC1 D101A/E235A, “two- to fourfold decreases in potency”; in the assay with FaNaC1 Q133N, “two- to fourfold decreases in potency”; in the assay on FaNaC1 V122F, “no effect”; with FaNaC1 V122Q, “no effect”. On FaNaC1 (WT), the agonist type result is given as “Full agonist”.
